Assay results as given in patent US5739106A, “Appetite regulating compositions” (priority 1995, dated 1998).

Assay: solubility and stability characteristics compared to human amylin
Assay type: physicochemical

Row | Structure (SMILES) | solubility characteristics | stability characteristics
1 | CC[C@H](C)[C@H](NC(=O)[C@@H]1CCCN1C(=O)CNC(=O)[C@H](Cc1ccccc1)NC(=O)[C@H](CC(N)=O)NC(=O)[C@H](CC(N)=O)NC(=O)[C@H](CO)NC(=O)[C@H](CO)NC(=O)[C@H](CCCNC(=N)N)NC(=O)[C@@H](NC(=O)[C@H](CC(C)C)NC(=O)[C@H](Cc1ccccc1)NC(=O)[C@H](CC(N)=O)NC(=O)[C@H](C)NC(=O)[C@H](CC(C)C)NC(=O)[C@H](CCCNC(=N)N)NC(=O)[C@H](CCC(N)=O)NC(=O)[C@@H](NC(=O)[C@H](C)NC(=O)[C@@H]1CSSC[C@H](NC(=O)[C@@H](N)CCCCN)C(=O)N[C@@H](CC(N)=O)C(=O)N[C@@H]([C@@H](C)O)C(=O)N[C@@H](C)C(=O)N[C@@H]([C@@H](C)O)C(=O)N1)[C@@H](C)O)C(C)C)C(=O)N[C@@H](CC(C)C)C(=O)N1CCC[C@H]1C(=O)N[C@@H](CO)C(=O)N[C@H](C(=O)N[C@@H](CC(N)=O)C(=O)N[C@H](C(=O)NCC(=O)N[C@@H](CO)C(=O)N[C@@H](CC(N)=O)C(=O)N[C@H](C(=O)N[C@@H](Cc1ccc(O)cc1)C(N)=O)[C@@H](C)O)C(C)C)[C@@H](C)O [^18 Arg^25,28 Pro-h-amylin] | more desirable | more desirable
2 | CC(C)C[C@H](NC(=O)[C@H](CCCNC(=N)N)NC(=O)[C@H](CCC(N)=O)NC(=O)[C@@H](NC(=O)[C@H](C)NC(=O)[C@@H]1CSSC[C@H](NC(=O)[C@@H](N)CCCCN)C(=O)N[C@@H](CC(N)=O)C(=O)N[C@@H]([C@@H](C)O)C(=O)N[C@@H](C)C(=O)N[C@@H]([C@@H](C)O)C(=O)N1)[C@@H](C)O)C(=O)N[C@@H](C)C(=O)N[C@@H](CC(N)=O)C(=O)N[C@@H](Cc1ccccc1)C(=O)N[C@@H](CC(C)C)C(=O)N[C@H](C(=O)N[C@@H](Cc1c[nH]cn1)C(=O)N[C@@H](CO)C(=O)N[C@@H](CO)C(=O)N[C@@H](CC(N)=O)C(=O)N[C@@H](CC(N)=O)C(=O)N[C@@H](Cc1ccccc1)C(=O)NCC(=O)N1CCC[C@H]1C(=O)N[C@H](C(=O)N[C@@H](CC(C)C)C(=O)N1CCC[C@H]1C(=O)N1CCC[C@H]1C(=O)N[C@H](C(=O)N[C@@H](CC(N)=O)C(=O)N[C@H](C(=O)NCC(=O)N[C@@H](CO)C(=O)N[C@@H](CC(N)=O)C(=O)N[C@H](C(=O)N[C@@H](Cc1ccc(O)cc1)C(N)=O)[C@@H](C)O)C(C)C)[C@@H](C)O)C(C)C)C(C)C [^25 Pro^26 Val^28,29 Pro-h-amylin] | more desirable | more desirable
